# Target: CYP6Z1 (Anopheles funestus, UniProt Z9NKG6IF05)
# By UniProt entry, the sequences of proteins in these tests, tags left out. Residues count along the entry.
# UniProt Z9NKG6IF05, 1-492: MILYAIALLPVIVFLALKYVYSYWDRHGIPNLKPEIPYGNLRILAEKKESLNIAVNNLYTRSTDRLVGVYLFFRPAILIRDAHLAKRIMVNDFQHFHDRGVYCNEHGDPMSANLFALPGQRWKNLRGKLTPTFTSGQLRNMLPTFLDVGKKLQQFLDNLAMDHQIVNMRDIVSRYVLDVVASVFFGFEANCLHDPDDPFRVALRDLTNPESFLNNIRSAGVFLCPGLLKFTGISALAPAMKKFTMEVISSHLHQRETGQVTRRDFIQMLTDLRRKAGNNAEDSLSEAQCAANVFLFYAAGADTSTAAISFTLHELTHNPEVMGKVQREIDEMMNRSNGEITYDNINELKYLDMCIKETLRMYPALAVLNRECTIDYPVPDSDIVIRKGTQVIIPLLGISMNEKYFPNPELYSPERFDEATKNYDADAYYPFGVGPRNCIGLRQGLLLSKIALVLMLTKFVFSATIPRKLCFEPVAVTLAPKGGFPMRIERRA
# Assay: fluorescent probe O-dealkylation kinetics, recombinant membranes
# Details: NADPH regenerating system
structure (smiles),measurement,value
CCOc1ccc2c(c1)Oc1cc(OCC)ccc1C21OC(=O)c2ccccc21,Km,0.13 µM
